US10053431B2, “Tetrahydro-benzodiazepinones” (priority 2013, dated 2018)

By UniProt entry, the sequences of proteins in these tests, tags left out. Chains listed by the source or under a name are the forms on record and can include a tag or linker. Residues count along the entry.
UniProt P98170, 124-240 with tags or gaps C202A/C213G limits assumed: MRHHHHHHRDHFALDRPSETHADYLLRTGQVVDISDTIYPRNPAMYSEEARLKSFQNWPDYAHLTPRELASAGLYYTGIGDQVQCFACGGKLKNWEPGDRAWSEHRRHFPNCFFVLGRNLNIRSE
UniProt P98170, 241-356 with tags or gaps limits assumed: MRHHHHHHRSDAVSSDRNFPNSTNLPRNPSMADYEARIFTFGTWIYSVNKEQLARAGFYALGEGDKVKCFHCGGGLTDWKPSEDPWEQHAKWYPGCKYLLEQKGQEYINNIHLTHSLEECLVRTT

How the values were obtained:
BIR2 domain of XIAP = BIR2 domain of XIAP (Homo sapiens (Human), UniProt P98170, C202A/C213G); test: TR-FRET assay for BIR2 (inhibition of binding of XIAP BIR2 domain to SMAC-derived Peptide A); details: 6x His-tagged BIR2 domain (aa 124-240 of XIAP) 10 nM, Peptide A 20 nM
BIR3 domain of XIAP = BIR3 domain of XIAP (Homo sapiens (Human), UniProt P98170); test: TR-FRET assay for BIR3 (inhibition of binding of XIAP BIR3 domain to SMAC-derived Peptide A); details: read-out: IC50 BIR3
[1] = 6x His-tagged BIR3 domain (aa 241-356 of XIAP) 10 nM, Peptide A 20 nM, TR-FRET

Row | SMILES | IC50 (BIR2 domain of XIAP) [nM] | IC50 (BIR3 domain of XIAP; [1]) [nM] | IC50 (BIR3 domain of XIAP) [nM]
1 | CN[C@@H](C)C(=O)N[C@H]1CN(C(C)=O)c2cc(C(F)(F)F)ccc2N(Cc2c(C3CC3)cnc3ccccc23)C1=O [Example 183, (S)-N-((S)-5-acetyl-1-((3-cyclopropylquinolin-4-yl)methyl)-2-oxo-7-(trifluoromethyl)-2,3,4,5-tetrahydro-1H-benzo[b][1,4]diazepin-3-yl)-2-(methylamino)propanamide] | 44.8 | 27500 | 
2 | CN[C@@H](C)C(=O)N[C@H]1CN(C(=O)CCCCN)c2ccccc2N(Cc2c(OC)ccc3cc(C(=O)OC)ccc23)C1=O [Example 52, 5-[(S)-5-(5-amino-pentanoyl)-3-((S)-2-methylamino-propionylamino)-2-oxo-2,3,4,5-tetrahydro-benzo[b][1,4]diazepin-1-ylmethyl]-6-methoxy-naphthalene-2-carboxylic acid methyl ester hydrochloride] | 47 |  | > 54800
3 | CN[C@@H](C)C(=O)N[C@H]1CN(C(=O)c2ccc(C#N)cc2)c2cc(Cl)ccc2N(Cc2c(OC)ccc3cc(Br)ccc23)C1=O [Example 131, (S)-N-((S)-1-((6-bromo-2-methoxynaphthalen-1-yl)methyl)-7-chloro-5-(4-cyanobenzoyl)-2-oxo-2,3 tetrahydro-1H-benzo[b][1,4]diazepin-yl)-2-(methylamino)propanamide hydrochloride] | 11.2 | 29800 | 
4 | CN[C@@H](C)C(=O)N[C@H]1CN(C(=O)c2ccc(F)cc2)c2cc(C#N)ccc2N(Cc2nn(-c3ccccc3C#N)c3ccccc23)C1=O [Example 163, (S)-N-((S)-7-cyano-1-((1-(2-cyanophenyl)-1H-indazol-3-yl)methyl)-5-(4-fluorobenzoyl)-2-oxo-2,3,4,5-tetrahydro-1H-benzo[b][1,4]diazepin-3-yl)-2-(methylamino)propanamide hydrochloride] | 17.2 | > 54800 | 
5 | CN[C@@H](C)C(=O)N[C@H]1CN(C(=O)c2ccncc2)c2cc(C#N)ccc2N(Cc2c(C3CC3)cnc3ccccc23)C1=O [Example 181] | 16.9 | 16300 | 
6 | CN[C@@H](C)C(=O)N[C@H]1CN(C(=O)c2cccc3[nH]ncc23)c2ccccc2N(Cc2c(C)ccc3ccccc23)C1=O [Example 147, (2S)-N-[(3S)-1-(1H-indazole-4-carbonyl)-5-[(2-methylnaphthalen-1-yl)methyl]-4-oxo-2,3-dihydro-1,5-benzodiazepin-3-yl]-2-(methylamino)propanamide] | 55.1 | > 54800 | 
7 | CN[C@@H](C)C(=O)N[C@H]1CN(C(=O)CS(C)(=O)=O)c2cc(C#N)ccc2N(Cc2nn(C)c3ccccc23)C1=O [Example 164, (S)-N-((S)-7-cyano-1-((1-methyl-1H-indazol-3-yl)methyl)-5-(2-(methylsulfonyl)acetyl)-2-oxo-2,3,4,5-tetrahydro-1H-benzo[b][1,4]diazepin-3-yl)-2-(methylamino)propanamide hydrochloride] | 103 | > 54800 | 
8 | CN[C@@H](C)C(=O)N[C@H]1CN(C(=O)CC2CCOCC2)c2ccccc2N(Cc2c(OC)ccc3cc(Br)ccc23)C1=O [Example 86, (S)—N—((S)-1-((6-bromo-2-methoxynaphthalen-1-yl)methyl)-2-oxo-5-(2-(tetrahydro-2H-pyran-4-yl)acetyl)-2,3,4,5-tetrahydro-1H-benzo[b][1,4]diazepin-3-yl)-2-(methylamino)propanamide hydrochloride] | 13 |  | 49600
9 | CN[C@@H](C)C(=O)N[C@H]1CN(C(=O)c2ccc(C#N)cc2)c2cc(Cl)ccc2N(Cc2c(OC)ccc3c(Br)cccc23)C1=O [Example 127, (S)-N-((S)-1-((5-bromo-2-methoxynaphthalen-1-yl)methyl)-7-chloro-5-(4-cyanobenzoyl)-2-oxo-2,3,4,5-tetrahydro-1H-benzo[b][1,4]diazepin-3-yl)-2-(methylamino)propanamide hydrochloride] | 9.22 | 26700 | 
10 | CN[C@@H](C)C(=O)N[C@H]1CN(C(=O)c2ccc3[nH]ncc3c2)c2ccccc2N(Cc2c(C)ccc3ccccc23)C1=O [Example 141, (25)-N-[(3S)-1-(1H-indazole-5-carbonyl)-5-[(2-methylnaphthalen-1-yl)methyl]-4-oxo-2,3-dihydro-1,5-benzodiazepin-3-yl]-2-(methylamino)propanamide] | 39.3 | 48300 | 
11 | CN[C@@H](C)C(=O)N[C@H]1CN(C(=O)c2ccc(F)cc2)c2cc(Cl)ccc2N(Cc2c(OC(F)F)ccc3ccccc23)C1=O [Example 140, (S)-N-((S)-7-chloro-1-((2-(difluoromethoxy)naphthalen-1-yl)methyl)-5-(4-fluorobenzoyl)-2-oxo-2,3,4,5-tetrahydro-1H-benzo[b][1,4]diazepin-3-yl)-2-(methylamino)propanamide hydrochloride] | 49.7 | 48800 | 
12 | CN[C@@H](C)C(=O)N[C@H]1CN(C(=O)c2ccc3cc[nH]c3c2)c2ccccc2N(Cc2c(C)ccc3ccccc23)C1=O [Example 152, (2S)-N-[(3S)-1-(1H-indole-6-carbonyl)-5-[(2-methylnaphthalen-1-yl)methyl]-4-oxo-2,3-dihydro-1,5-benzodiazepin-3-yl]-2-(methylamino)propanamide] | 32.6 | 51700 | 

Counter-ions that a name gives are not always drawn. Like-named read-outs stand apart in the source and are kept apart here.
